What was measured:
[1] = biological target: 5-hydroxytryptamine receptor 2A (Homo sapiens, UniProt P28223); experiment: Inhibition of 5-HT2A receptor
[2] = biological target: Sodium-dependent serotonin transporter (Homo sapiens, UniProt P31645); experiment: Inhibition of SERT

Chains of the proteins cited; added tags and fusions are not shown.
UniProt P28223, whole entry: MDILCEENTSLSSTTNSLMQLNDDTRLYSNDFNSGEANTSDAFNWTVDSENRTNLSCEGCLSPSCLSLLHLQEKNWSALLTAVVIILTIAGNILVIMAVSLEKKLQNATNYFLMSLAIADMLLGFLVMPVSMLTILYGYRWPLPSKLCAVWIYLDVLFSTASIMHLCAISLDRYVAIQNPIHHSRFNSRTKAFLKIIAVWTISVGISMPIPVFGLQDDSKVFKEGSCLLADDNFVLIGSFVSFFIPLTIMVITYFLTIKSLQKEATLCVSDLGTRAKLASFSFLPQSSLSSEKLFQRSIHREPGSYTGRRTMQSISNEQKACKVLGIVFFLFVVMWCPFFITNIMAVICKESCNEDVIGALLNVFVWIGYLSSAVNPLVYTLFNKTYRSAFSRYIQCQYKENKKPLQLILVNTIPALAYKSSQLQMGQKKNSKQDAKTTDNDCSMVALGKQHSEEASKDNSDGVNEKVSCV
UniProt P31645, whole entry: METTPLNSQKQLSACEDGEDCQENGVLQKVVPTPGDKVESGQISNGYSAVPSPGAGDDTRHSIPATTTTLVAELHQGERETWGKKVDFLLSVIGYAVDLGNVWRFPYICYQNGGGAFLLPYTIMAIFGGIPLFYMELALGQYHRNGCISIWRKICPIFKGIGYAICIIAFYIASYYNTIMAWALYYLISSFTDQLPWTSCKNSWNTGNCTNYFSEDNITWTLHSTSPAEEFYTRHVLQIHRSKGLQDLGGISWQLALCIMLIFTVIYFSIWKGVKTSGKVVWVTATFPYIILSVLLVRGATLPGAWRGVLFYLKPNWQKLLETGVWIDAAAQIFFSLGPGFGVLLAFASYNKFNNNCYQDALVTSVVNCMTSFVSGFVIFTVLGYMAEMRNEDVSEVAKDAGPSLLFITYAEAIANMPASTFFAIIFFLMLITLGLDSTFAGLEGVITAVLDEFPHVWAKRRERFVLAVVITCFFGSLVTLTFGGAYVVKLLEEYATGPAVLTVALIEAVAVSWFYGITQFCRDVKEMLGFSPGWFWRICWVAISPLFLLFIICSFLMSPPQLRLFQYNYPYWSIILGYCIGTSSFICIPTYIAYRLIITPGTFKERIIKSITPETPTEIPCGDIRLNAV

SMILES | Ki [1] [nM] | Ki [2] [nM]
O=S1(=O)N(CCN2CC=C(c3c[nH]c4cc(F)ccc34)CC2)c2cccc3c2N1CCC3 | 0.81 | 2.3
Fc1ccc(OC[C@@H]2CNCCO2)c2c1CCC2 [LUBAZODONE] | 86 | 21

— ChEMBL document CHEMBL1154983, “Arylpiperazine-containing pyrrole 3-carboxamide derivatives targeting serotonin 5-HT(2A), 5-HT(2C), and the serotonin transporter as a potential antidepressant” (Bioorg Med Chem Lett, 2010)
